Experimental data: ChEMBL document CHEMBL1833902, “Design, synthesis, and biological studies of efficient multivalent melanotropin ligands: tools toward melanoma diagnosis and treatment” (J Med Chem, 2011)

The chains behind the UniProt entries cited, without tags or fusion partners.
UniProt P32245, whole entry: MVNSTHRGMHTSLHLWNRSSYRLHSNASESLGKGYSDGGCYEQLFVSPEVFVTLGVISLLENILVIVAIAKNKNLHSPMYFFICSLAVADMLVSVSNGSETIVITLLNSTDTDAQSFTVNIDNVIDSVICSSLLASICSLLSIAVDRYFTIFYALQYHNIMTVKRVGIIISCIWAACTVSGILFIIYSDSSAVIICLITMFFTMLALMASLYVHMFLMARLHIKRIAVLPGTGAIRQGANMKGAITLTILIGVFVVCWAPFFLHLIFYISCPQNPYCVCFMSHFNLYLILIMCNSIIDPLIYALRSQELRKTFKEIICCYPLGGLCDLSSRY

Biological target: Melanocortin receptor 4 (Homo sapiens, UniProt P32245)
Assay: Displacement of Eu-NDP-alpha-MSH from human MC4R expressed in HEK293 cells after 2 hrs by time resolved fluorescence assay
Assay type: cell-based

CC(=O)N[C@@H](Cc1cnc[nH]1)C(=O)N[C@H](Cc1ccccc1)C(=O)N[C@@H](CCCN=C(N)N)C(=O)N[C@@H](Cc1c[nH]c2ccccc12)C(N)=O
IC50: 4.6 µM
